# From PubChem BioAssay AID2069 (Sanford-Burnham Center for Chemical Genomics, 2009)
# The list shows a part of the results, in another mix than the full data. Active and inactive are the calls of the source. No stated cut-off is given here; in the data, active means inhibition above about 30%; inactive means the rest.
# Test: fluorescence readout artefact check – biochemical, HTRF, uHTS, artefact control for SUMOylation inhibitor project, confirmation (AID 2069)
# Conditions: HTRF interference counterscreen, at 35 µM, hits give high values
row,Compound,inhibition
1,Nc1cccc2c([As](=O)(O)O)cccc12,inactive: 27.9%
2,Nc1cccc2ccc([As](=O)(O)O)cc12,inactive: 25%
